Test results taken from ChEMBL document CHEMBL2029320 (J Med Chem, 2012).

How the values were obtained:
[1] = molecular target: T1, Relaxin-3 receptor 1 (Homo sapiens, UniProt Q9NSD7); experiment: Agonist activity at RXFP3 expressed in CHO-K1 cells assessed as inhibition of forskolin-induced cAMP accumulation after 6 hrs by beta galactosidase reporter gene assay; type: functional, cell-based
T1 sequence (Q9NSD7 whole entry): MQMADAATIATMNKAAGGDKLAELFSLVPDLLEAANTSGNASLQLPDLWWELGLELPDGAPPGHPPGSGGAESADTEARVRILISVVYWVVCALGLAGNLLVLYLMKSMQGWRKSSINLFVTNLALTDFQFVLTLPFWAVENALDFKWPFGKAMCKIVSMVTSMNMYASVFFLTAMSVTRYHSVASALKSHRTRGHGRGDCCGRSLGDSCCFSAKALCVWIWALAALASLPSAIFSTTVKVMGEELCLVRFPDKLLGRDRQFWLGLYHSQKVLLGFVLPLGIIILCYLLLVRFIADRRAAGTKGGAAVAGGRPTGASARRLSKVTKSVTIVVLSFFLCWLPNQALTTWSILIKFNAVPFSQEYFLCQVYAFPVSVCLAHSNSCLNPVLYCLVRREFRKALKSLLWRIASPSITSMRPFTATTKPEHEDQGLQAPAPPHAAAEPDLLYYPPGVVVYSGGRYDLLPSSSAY

[2] = molecular target: T1, Relaxin-3 receptor 1; experiment: Displacement of europium-labelled H3 relaxin-B chain/INSL-5 chain from RXFP3 expressed in CHO-K1 cells; type: cell-based

CC[C@H](C)[C@@H]1NC(=O)[C@H](Cc2ccccc2)NC(=O)[C@H](CCC(=O)O)NC(=O)[C@H](CCCN=C(N)N)NC(=O)CNC(=O)[C@@H](N)CSSC[C@H](N)C(=O)N[C@@H](CCCCN)C(=O)N[C@@H](Cc2c[nH]c3ccccc23)C(=O)NCC(=O)N[C@@H](C)C(=O)N[C@@H](CO)C(=O)N[C@@H](CCCCN)C(=O)N[C@@H](CO)C(=O)N[C@@H](CCC(=O)O)C(=O)N[C@@H]([C@@H](C)CC)C(=O)N[C@@H](CO)C(=O)N[C@@H](CO)C(=O)N[C@@H](CC(C)C)C(=O)N[C@H](C(=O)O)CSSC[C@@H](C(=O)NCC(=O)NCC(=O)N[C@@H](CO)C(=O)N[C@@H](CCCN=C(N)N)C(=O)N[C@@H](Cc2c[nH]c3ccccc23)C(=O)O)NC(=O)[C@H]([C@@H](C)O)NC(=O)[C@H](Cc2ccccc2)NC(=O)[C@H]([C@@H](C)CC)NC(=O)[C@H](C(C)C)NC(=O)[C@H](C)NC(=O)[C@H](CCCN=C(N)N)NC1=O
IC50 [1]: 0.0126 µM
Ki [2]: 0.11 µM
